Results as given in patent publication US12729404B2, “Method and kit for testing drug hypersensitivity reactions caused by sulfonamide derivative-based antiepileptic drug and use of the kit” (CHANG GUNG MEMORIAL HOSPITAL, LINKOU, priority 2020, dated 2026).

Tested on: HLA-B*13:01 and (HLA-B*51:01 or HLA-B*51:02)
Experiment: Association of the combination of HLA-B*13:01 and (HLA-B*51:01 or HLA-B*51:02) with zonisamide-induced severe cutaneous adverse reactions (SCAR), cases vs general population

NS(=O)(=O)Cc1noc2ccccc12 [zonisamide]
OR (SCAR cases vs 2038 healthy controls): 46.2
Cases (%) carrying the allele (zonisamide-SCAR cases): (100%)
Cases N (allele carriers / patients) (zonisamide-SCAR cases): 7/7
